Measured values reported in patent US20150105409A1, “HDAC INHIBITORS, ALONE OR IN COMBINATION WITH BTK INHIBITORS, FOR TREATING NONHODGKIN'S LYMPHOMA” (Acetylon Pharmaceticals, Inc., priority 2013, published 2015).

System: Mino MCL cells
Assay: CellTiter-Blue cell viability, combination (CI analysis)
Format: cell-based, human
Details: 72 hours, single agent, at Fa of combination dose 10.0E−6/25.0E−6
Method: Z138 and Mino MCL cells were treated with varying concentrations of Compound A and the BTKi Ibrutinib for 72 hours. Cell viability was next assessed using the CellTiter-Blue reagent (Promega). The results of these experiments are shown in FIG. 8 and in the Table below.

With `C=CC(=O)N1CCC[C@@H](n2nc(-c3ccc(Oc4ccccc4)cc3)c3c(N)ncnc32)C1` [ibrutinib, reference compound] the “Dm (PCI-32765)” value was 41.3E−6.
